Test results taken from PubChem BioAssay AID677 (Vanderbilt High Throughput Screening Facility, 2007).
The list shows a part of the results, in another mix than the full data. The source made the active and inactive calls.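 Rule for the calls: active = calcium response below the same-plate mean of wells given acetylcholine alone at its 80%-effect dose, minus 3 SD; inactive = the rest.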

Protein sequences, listed by entry. Tags and fused reporters are not part of them. Lines headed by an entry give the natural chain unless they say otherwise; changes in a name come on top.
UniProt P08482: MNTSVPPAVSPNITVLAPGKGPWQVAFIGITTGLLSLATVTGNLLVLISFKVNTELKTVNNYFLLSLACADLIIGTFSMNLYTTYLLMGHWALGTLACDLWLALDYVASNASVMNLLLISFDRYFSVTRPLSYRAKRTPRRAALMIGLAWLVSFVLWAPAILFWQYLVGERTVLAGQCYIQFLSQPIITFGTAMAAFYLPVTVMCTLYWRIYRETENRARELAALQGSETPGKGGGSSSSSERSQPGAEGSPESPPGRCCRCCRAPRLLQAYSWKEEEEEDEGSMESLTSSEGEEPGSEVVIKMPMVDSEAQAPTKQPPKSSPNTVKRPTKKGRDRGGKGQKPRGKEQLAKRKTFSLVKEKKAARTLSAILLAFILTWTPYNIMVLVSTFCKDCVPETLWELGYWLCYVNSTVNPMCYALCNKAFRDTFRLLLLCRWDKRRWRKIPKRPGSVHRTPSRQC

These compounds were tested against Muscarinic acetylcholine receptor M1 (Rattus norvegicus) (UniProt P08482) (assay: blockers of ACh-evoked M1 calcium signal – CHO cells, Fluo-4 calcium, duplicate, confirmation (AID 677;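 note: raw fluorescence intensity difference in arbitrary instrument units and not normalized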)). Conditions: ACh EC80 antagonism, at 10 µM, hits give low values.

SMILES | calcium response (max-min fluorescence)
OC(CCN1CCCCC1)(c1ccccc1)C1CCCCC1 (configuration not stated) | active: 13.2
CNCCCN1c2ccccc2CCc2ccccc21 | active: 21.4
CC(C)[N+]1(C)[C@@H]2CC[C@H]1CC(OC(=O)C(CO)c1ccccc1)C2 (some centres not stated) | active: 16
CN1C2CCC1CC(OC(=O)c1c[nH]c3ccccc13)C2 (configuration not stated) | active: 460
CCN(CC)CCOC(=O)C1(C2CCCCC2)CCCCC1 | active: 16.8
Cc1ccc(N(CC2=NCCN2)c2cccc(O)c2)cc1 | inactive: 581
OCCN1CCN(CCCN2c3ccccc3Sc3ccc(Cl)cc32)CC1 | active: 402
